Assay results reported in patent US20210247384A1.

Molecular target: Angiotensin II receptor type 1 (AT1) (UniProt P30556)
Test: cell-based or functional assay

biased agonist SII (peptide)
tau of the fluorescence response of the BArr 5A arrestin biosensor, HEK293T cells co-transfected with the receptor, time-lapse imaging: 119 s
